# How the values were obtained:
# melanoma patients [1] = tested on: melanoma patients
# melanoma patients [2] = settings: in vivo
# [3] = 10 and 50 ug QS-21 doses with GM2-KLH
substance,measurement,setting,value
11^3NeuAc-GgOse3Cer-keyhole limpet hemocyanin (KLH) [GM2-KLH],median severity by NCI Common Toxicity Criteria: Erythema and Induration,melanoma patients [1]; QS-21 dose 0,(1)
same,median severity by NCI Common Toxicity Criteria: Tenderness and Pain,melanoma patients [1]; QS-21 dose 0,(1)
same,Number of adverse reactions: Erythema and Induration (local),melanoma patients [1]; in vivo,6 (1)
same,Number of adverse reactions: Fever (systemic),melanoma patients [1]; in vivo,0
same,Number of adverse reactions: Headache (systemic),melanoma patients [1]; in vivo,0
same,Number of adverse reactions: Myaligia (systemic),melanoma patients [1]; in vivo,0
same,Number of adverse reactions: Nausea or Vomiting (systemic),melanoma patients [1]; in vivo,0
same,Number of adverse reactions: Tenderness and Pain (local),melanoma patients [1]; in vivo,6 (1)
II^3NeuAc-GgOse3Cer [GM2],side effects,melanoma patients [2],caused no additional side effects
QS-21 [reference compound],restricted usage of the injected extremity,melanoma patients [1]; 200 ug QS-21 with GM2-KLH,5 to 10 days
same,diameter of local reactions,"melanoma patients [1]; 200 ug QS-21 with GM2-KLH, all patients",≤ 20 cm
same,duration of erythema and induration,melanoma patients [1]; [3],24 to 48 h
same,erythema and induration,melanoma patients [1]; [3],2–4 cm
same,duration of mild local tenderness and inflammation at vaccination sites,melanoma patients [1]; in vivo,2 to 4 days
same,vaccinations followed by low grade fever and malaise,melanoma patients [1]; in vivo,30%

# From patent publication US7014856B1, “Ganglioside-KLH conjugate vaccines plus OS-21” (Sloan-Kettering Institute for Cancer Research, priority 1993, dated 2006)
